Results: PubChem BioAssay AID588492 (Sanford-Burnham Center for Chemical Genomics, 2011)
The entries are a selection whose mix differs from that of the whole data set. Calls of active or inactive are those of the source.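 The calls were made as follows: active = compounds giving at least 50% protection of heart cells from peroxide-induced death in the single-dose screen, raw or plate-pattern-corrected value; inactive = the rest.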

Assay: cardioprotection against H2O2-induced cell death, primary screen, uHTS, H9c2 cells, ATPLite luminescence (AID 588492);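 also: 0% = DMSO wells with peroxide and 100% = DMSO wells without peroxide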
Settings: H9c2 cardiomyocytes, H2O2 injury protection, 2 h, at 20 µM, stronger effect = higher value

Structure (SMILES) | protection from H2O2 cell death
CCOC(=O)C(CC)C1=NC(C)(C)Cc2ccccc21.O=[N+]([O-])c1cc([N+](=O)[O-])c(O)c([N+](=O)[O-])c1 (stereo not given) | inactive: 2.7%
O=[N+]([O-])c1cc([N+](=O)[O-])c(Nc2nnnn2CCO)c([N+](=O)[O-])c1 | inactive: -1%
CN(C)C1(CNC(=O)c2ccc(S(C)(=O)=O)cc2)CCCCC1 | inactive: -0.4%
CC1=C2N=C(C=C3N=C(C(C)=C4[N-][C@@](C)([C@@H]5N=C1[C@](C)(CCC(=O)NC[C@@H](C)OP(=O)([O-])O[C@H]1[C@@H](O)[C@@H](n6cnc7cc(C)c(C)cc76)O[C@@H]1CO)[C@H]5CC(N)=O)[C@@](C)(CC(N)=O)[C@@H]4CCC(N)=O)[C@@](C)(CC(N)=O)[C@@H]3CCC(N)=O)C(C)(C)[C@@H]2CCC(N)=O.[C-]#N.[Co+3] | inactive: -10.1%
COc1ccccc1OP(C)(=O)Nc1c(C)cccc1C (stereo not given) | inactive: 0.8%
CN1CCCCC1COC(=O)C1(O)c2ccccc2CCc2ccccc21 (stereo not given) | inactive: -0.9%
CP(=O)(Nc1ccc(SC(F)(F)F)cc1)Oc1ccccc1 (stereo not given) | inactive: -7.7%
CCCOc1ccc(NP(C)(=O)Oc2ccc(Cl)cc2)cc1 (stereo not given) | inactive: 3.5%
O=[N+]([O-])c1cc([N+](=O)[O-])c(-n2nnc3ccccc32)c([N+](=O)[O-])c1 | inactive: 0.9%
CN(Cc1cccnc1)C(=O)COc1ccc(Cl)c(Cl)c1.O=[N+]([O-])c1cc([N+](=O)[O-])c(O)c([N+](=O)[O-])c1 | inactive: -3.6%
O=[N+]([O-])c1cc([N+](=O)[O-])c(-c2cnn(-c3ccccc3)c2)c([N+](=O)[O-])c1 | inactive: -7.5%
Cc1nc2ccc3ccccc3c2s1.O=[N+]([O-])c1cc([N+](=O)[O-])c(O)c([N+](=O)[O-])c1 | inactive: 0.3%
COc1ccccc1OP(C)(=O)Nc1cccc(Br)c1 (stereo not given) | inactive: 0.8%
COc1cc(C(=O)NCC2(N3CCOCC3)CCCCC2)cc(Cl)c1OC(C)C | inactive: -6.4%
Cc1cc(C)cc(OP(C)(=O)Nc2ccc(C)cc2C)c1 (stereo not given) | inactive: 2.9%
CCOC(=O)c1ccc(NP(C)(=O)Oc2cc(C)cc(C)c2)cc1 (stereo not given) | inactive: -0.5%
CP(=O)(Nc1cccc(Br)c1)Oc1ccccc1 (stereo not given) | inactive: 3.5%
Cc1cc(C)cc(OP(C)(=O)Nc2ccccn2)c1 (stereo not given) | inactive: -2.7%
Cc1ccc(C)c(NP(C)(=O)Oc2ccccc2)c1 (stereo not given) | inactive: 11.2%
O=C(O)c1cccc(Nc2c([N+](=O)[O-])cc([N+](=O)[O-])cc2[N+](=O)[O-])c1 | inactive: -4%
CC1=NCCc2c1[nH]c1ccccc21.O=[N+]([O-])c1cc([N+](=O)[O-])c(O)c([N+](=O)[O-])c1 | inactive: 8.6%
O=[N+]([O-])c1cc([N+](=O)[O-])c(Nc2cccnc2)c([N+](=O)[O-])c1 | inactive: -21.2%
COc1cc(C(=O)NCC2(N3CCOCC3)CCCCC2)ccc1OCC(C)C | inactive: -3.2%
Cc1cccc(C)c1OP(C)(N)=O (stereo not given) | inactive: -10.7%
CC(C)(C)c1ccc(OP(C)(=O)Nc2ccc(SC(F)(F)F)cc2)cc1 (stereo not given) | inactive: -10.9%

Structure (SMILES) | protection from H2O2 cell death
O=[N+]([O-])c1ccc2c(c1)C=Nc1ccccc1O2 | inactive: 8.9%
CCOC(=O)c1ccc(NP(C)(=O)Oc2ccccc2)cc1 (stereo not given) | inactive: 3.3%
Cc1ccc(NP(C)(=O)Oc2ccccc2)c(C)c1 (stereo not given) | inactive: 3.4%
COc1ccccc1OP(C)(=O)Nc1ccc(C)cc1 (stereo not given) | inactive: 8.2%
COc1ccc(OP(C)(=O)Nc2cccc(F)c2)cc1 (stereo not given) | inactive: 1.3%
COc1ccccc1OP(C)(=O)Nc1cc(Cl)ccc1C (stereo not given) | inactive: -3.7%
Cc1cc(C)cc(OP(C)(N)=O)c1 (stereo not given) | inactive: 1.2%
CCN(CC)CCCOC(=O)C(O)(c1ccccc1)c1ccccc1 | inactive: 5.9%
CP(=O)(Oc1ccccc1)OC(c1ccccc1)C(F)(F)F (stereo not given) | inactive: -1.6%
Cc1cccc(C)c1OP(C)(=O)Nc1ccc(SC(F)(F)F)cc1 (stereo not given) | inactive: -1.1%
Cc1ccc(Nc2c([N+](=O)[O-])cc([N+](=O)[O-])cc2[N+](=O)[O-])cc1 | inactive: -19.4%
CP(=O)(Nc1ccc(SC(F)(F)F)cc1)Oc1ccc(Cl)cc1 (stereo not given) | inactive: -12.5%
Cc1cc(C)cc(OP(C)(=O)Nc2ccc(SC(F)(F)F)cc2)c1 (stereo not given) | inactive: -9.7%
CCc1ccc(OP(C)(=O)N2CCN(c3ccc([N+](=O)[O-])cc3)CC2)cc1 (stereo not given) | inactive: -7.6%
CP(=O)(NC(=O)Nc1ccccc1)Oc1ccccc1 (stereo not given) | inactive: -3.7%
CCOP(C)(=S)SCC(=O)NC(C)C(=O)O (stereo not given) | inactive: 9.1%
CCOC(=O)c1ccc(NP(C)(=O)Oc2ccc(OC)cc2)cc1 (stereo not given) | inactive: -2.1%
O=[N+]([O-])c1cc([N+](=O)[O-])c(O)c([N+](=O)[O-])c1.c1ccc(Oc2ccncc2)cc1 | inactive: 0.1%
CP(=O)(Nc1ccccn1)Oc1ccc(Cl)cc1 (stereo not given) | inactive: 4.2%
CCCCOc1ccc(C(=O)NCC2(N3CCCCC3)CCCCC2)cc1OC | inactive: -1.2%
CP(=S)(Nn1cnnc1)Oc1ccccc1 (stereo not given) | inactive: -8.9%
COc1ccccc1OP(C)(=O)Nc1ccccc1 (stereo not given) | inactive: -0.8%
CP(=O)(Nc1ccccc1Br)Oc1ccccc1 (stereo not given) | inactive: 5.9%
CP(=O)(OC12CC3CC(CC(C3)C1)C2)OC12CC3CC(CC(C3)C1)C2 | inactive: 2.9%
CCOC(=O)c1ccc(NP(C)(=O)Oc2ccc(Cl)cc2)cc1 (stereo not given) | inactive: -0.2%
